For the data set the following is noted: a range is the spread between reports.

Regarding `CCl`, the melting point is -97.7 to -97 °C.

`OCCOCCOCCOCCO` showed a melting point of -6.2 to -4 °C. `COc1ccc(CO)cc1` registered a melting point of 24 to 26 °C. The compound `C1CNCCNCCCNCCNC1` had a melting point of 185 to 186 °C. The value for `c1ccc2cccc-2cc1` was 99 to 100 °C; that for `CC1CCC(C(C)C)CC1` (configuration not stated) was -89.9 to -86.3 °C. Turning to `CCCCOCCCC`, the melting point was -98 to -95 °C.

For orientation: melting point means the temperature of the solid-liquid transition.

The values above are taken from a melting point compilation (Tetko et al.).
